Data from patent US20180339016A1 (priority 2015, published 2018).

System: not listed separately
Experiment: CD alpha-helical content
Type: physicochemical
Settings: membrane conditions

Sequence | alpha-helical content [%]
LKKLLKPPKKLLKL [LK-L7PL8P] | 60
KLLKLLKKPLKLLK [KL-L9P] | 70
KLLKLLKKDLKLLK [KL L9D] | 50

System: Human red blood cells
Experiment: not given
Settings: previously examined peptide; cited from earlier work

Sequence | hemolytic activity
RAGLQFPVGRVHRLLRK [buforin 5-20] | no hemolytic activity

System: Human red blood cells
Experiment: Hemolysis assay (MHC)
Type: cell-based
Settings: at a concentration of at least 100 microM
Procedure: Cytotoxicity for mammalian cells was evaluated by a hemolysis assay. Human red blood cells were washed three times with PBS and suspended in PBS buffer to 5 v/v % to make 5% hematocrit. The peptide was diluted with 2-fold PBS, and then 5% hematocrit was added thereto. The sample was incubated in a 37° C. incubator for 3 hours and centrifuged at 1400 rpm for 5 minutes. The supernatant was transferred to a flat-bottom 96-well plate, and the UV absorbance at 405 nm (background 700 nm) was measured. As a positive control, distilled water was used, and as a negative control, PBS was used.

Sequence | hemolysis
LKKLLKLPKKLLKL [LK-L8P] | no hemolysis

Same assay, conditions: peptide concentration required for 10% hemolysis in hRBCs

Sequence | MHC [μM] (minimum hemolytic concentration) [µM]
KLLKLLPKLLKLLK [KL-K7P] | 1.2
LKKLPKLLKKPLKL [LK-L5PL11P] | >1280
KLLKLLKPLLKLLK [KL-K8P] | 1.2
KLLKLPKKLLKLLK [KL-L6P] | 1300
LKKLLPLLKKLLKL [LK-K6P] | 0.60
KPLKLLKKLLKLLK [KL-L2P] | 20
LKKLLKPLKKLLKL [LK-L7P] | 160
LKKPPKLLKKLLKL [LK-L4PL5P] | >1280
LKKLLKLLKKPPKL [LK-L11PL12P] | >1280
LKKPLKLLKKPLKL [LK-L4PL11P] | >1280
LKKLLKLLKPLLKL [LK-K10P] | 0.60
LKKLLKLLKKLPKL [LK-L12P] | 160
KLLKPLKKLLKLLK [KL-L5P] | 160
LKKPLKLPKKLLKL [LK-L4PL8P] | >1280
LKKLLKLLKKLLKL | 0.3
KLLKLLKKLLKPLK [KL-L12P] | 320
LKKLLKLPKKPLKL [LK-L8PL11P] | >1280
KLPKLLKKLLKLLK [KL-L3P] | 40
LKKLPKLLKKLLKL [LK-L5P] | 160
LKKLLKLLPKLLKL [LK-K9P] | 0.60
LKKLLKPPKKLLKL [LK-L7PL8P] | >1280
LKKLLKLPKKLLKL [LK-L8P] | 1280
KLLKLLKKLLKLLK | 1.25
KLLKLLKKLPKLLK [KL-L10P] | 120
LKKLLKPLKKPLKL [LK-L7PL11P] | >1280
LKKLPKLPKKLLKL [LK-L5PL8P] | >1280
KLLKLLKKPLKLLK [KL-L9P] | 1300
KLLKLLKKLLKLPK [KL-L13P] | 40
LKKLLKLLKKPLKL [LK-L11P] | >1280
LKKPLKLLKKLLKL [LK-L4P] | 160
